Screening data (PubChem)
An excerpt weighted towards active compounds, which were near 1.2% of everything screened.
Cneo AK release: causes C. neoformans cell lysis; adenylate kinase release luminescence, 4 h; normalised: neutral wells 0, clomiphene wells 100; 0.2% of 360,000 active; lysis activity, % at 15 µM;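 active = mean lysis activity across replicates of at least 80%, whatever share of replicates individually reach that level; inactive = mean lysis activity below 80%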
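Material: C. neoformans cells; Schedule: 4 h static compound exposure, 37 °C, read 1 h post-reagent; Measured by: adenylate kinase release luminescence; Read-out: signal increase indicating cell lysis; Controls: Clomiphene as positive lysis control.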
N-glyco inh: N-linked glycosylation inhibition; D54 ERlucT glycosylation luciferase reporter, 24 h; percent of 100 nM tunicamycin response; reporter increase, % at 12.5 µM; 0.23% of 360,000 active;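 active = mean luciferase reporter signal, scaled so untreated is 0 and the glycosylation-blocking control 100, at or above a set limit in every replicate; inconclusive = mean reaches the limit but not every replicate does; inactive = mean below the limit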;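 also: luciferase carries N-glycosylation sites so blocking glycosylation raises the light; 0% = median of neutral control wells and 100% = median of 100 nM tunicamycin wells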
Yeast UUG start: yeast start codon fidelity modulation. S. cerevisiae UUG-firefly luciferase reporter, luminescence/redox ratio. activity score, % at 18.7 µM. 0.13% of 350,000 active;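 active = replicate mean at a twofold rise or more, about +100% in these data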;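 also: firefly luciferase made from a UUG start codon reports start codon fidelity; reporter light over untreated wells divided by growth signal over untreated wells; some hits fall short of that in this replicate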
miR122 inh: miR-122 inhibition in Huh7 cells; activation (reporter increase), % at 12.5 µM; 0.3% of 340,000 active; Huh7 miR-122 Renilla luciferase sensor, 48 h; neutral wells = 0, positive control = 100;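 active = mean replicate activation score at least 90 and every replicate individually at or above 90; inconclusive = only one of the two criteria met; inactive = neither criterion met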;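 also: higher luciferase means less miR-122 activity so hits act as miR-122 inhibitors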
C2C12 statin: protects C2C12 myotubes from simvastatin toxicity; ATP luminescence, 48 h; scaled: DMSO 0, geranylgeraniol control 100; rescue of ATP level, % at 7.49 µM; 0.78% of 330,000 active; AID 602340;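 active = mean ATP rescue above about 67%, or every replicate alone reaching that limit, limit read from the data, passing the limit was not always enough; inconclusive = no clear call, values can overlap the other calls; inactive = mean under the limit and some replicate under it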;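 also: myotubes were challenged with 10 µM simvastatin during compound exposure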
An asterisk follows results filed as active; ? = inconclusive; . = no result; [ ] = another dose, or the depositor's remark.

1) Oc1ccc(Nc2nc(N3CCCC3)c3ccccc3n2)cc1
2) O=C(NCC[C@@H]1CC[C@@H](NS(=O)(=O)c2cccc(F)c2)[C@H](CO)O1)C1CCC1
3) CCN1C(=O)Nc2cccc3cccc1c23
4) C=CCN1C(=O)N(CC=C)c2cccc3cccc1c23
5) CCCCCNC(=O)c1ccc2c(=O)[nH]c3c(C(=O)NCC4CCCO4)sc(=S)n3c2c1 (stereo not drawn)

assay / compound	1	2	3	4	5
Cneo AK release	0	-1	-1	1	-1
N-glyco inh	53*	.	30*	1	1
Yeast UUG start	-1	5	-19	6	4
miR122 inh	3	.	-3	10	-3
C2C12 statin	.	1	.	10	118*

6) Cc1ccc(CNC(=O)c2ccc3c(=O)[nH]c4c(C(=O)NCC5CCCO5)sc(=S)n4c3c2)cc1 (stereo not drawn)
7) CCCCNS(=O)(=O)c1ccc2nc(-c3cccnc3)cc(C(=O)NC3CCCC3)c2c1
8) CCCCNS(=O)(=O)c1ccc2nc(-c3cccnc3)cc(C(=O)NC3CC3)c2c1
9) CCOc1ccc(Br)cc1S(=O)(=O)Nc1ccc(Cl)c(S(=O)(=O)N(CC)c2ccccc2)c1
10) CN1CCN(CCCNC(=O)c2ccc(/C=C3\Oc4ccccc4N(Cc4ccccc4F)C3=O)cc2)CC1

assay / compound	6	7	8	9	10
Cneo AK release	1	.	1	1	108*
N-glyco inh	4	1	7	-2	-4
Yeast UUG start	-6	.	-15	-8	-3
miR122 inh	-4	97*	53	281*	.
C2C12 statin	4	6	-1	.	?

11) COCC(=O)Nc1ccc2c(c1)C(=O)N(C)C[C@H](OC)[C@@H](C)CN(Cc1cccc(F)c1)[C@H](C)CO2
12) CCCC(=O)Nc1ccc2c(c1)C(=O)N(C)C[C@@H](OC)[C@H](C)CN(Cc1ccccc1)[C@@H](C)CO2
13) CCCCC[n+]1ccn(-c2nc3ccccc3nc2[N-]S(=O)(=O)c2ccccc2)c1
14) O=S(=O)([N-]c1nc2ccccc2nc1-n1cc[n+](Cc2ccccc2)c1)c1ccc(Br)cc1
15) CCN1CCN(c2ncnc3sc(C)c(-c4ccccc4)c23)CC1

assay / compound	11	12	13	14	15
Cneo AK release	-2	-6	2	1	-2
N-glyco inh	.	.	-4	48*	-5
Yeast UUG start	13	-3	14	-4	-16
miR122 inh	.	5[16.7 µM]	20	10	-2
C2C12 statin	-12	21	.	.	-11

16) Cc1ccc(-c2nnc(Nc3ccccc3)c3ccccc23)cc1S(=O)(=O)NCC1CCCO1 (stereo not drawn)
17) c1cnc2ccc(C(c3nnnn3C3CCCC3)N3CCN(c4nc5ccccc5s4)CC3)cc2c1 (stereo not drawn)
18) CNC[C@@H]1Oc2ccc(NC(=O)CCCN(C)C)cc2C(=O)N([C@H](C)CO)C[C@@H]1C
19) C[C@H](CO)N1C[C@H](C)[C@H](CN(C)Cc2ccncc2)OCCCC[C@H](C)Oc2ccc(NC(=O)c3ccccc3)cc2C1=O
20) Cc1ccc(S(=O)(=O)NNC(=O)c2snnc2C)cc1

assay / compound	16	17	18	19	20
Cneo AK release	2	1	3	-1	0
N-glyco inh	-2	-4	.	.	0
Yeast UUG start	58	-8	5	5	-12
miR122 inh	127*	11	4[16.7 µM]	-13[16.7 µM]	15
C2C12 statin	-13	122*	-5	-18	128*

21) Cc1nnsc1C(=O)NNS(=O)(=O)c1cc(C(F)(F)F)cc(C(F)(F)F)c1
22) CN(C)C(=O)C[C@@H]1CC[C@@H]2[C@H](COC[C@@H](O)CN2S(=O)(=O)c2ccccc2)O1
23) O=[N+]([O-])c1ccc(Sc2cc[n+]([O-])c3ccccc23)c([N+](=O)[O-])c1
24) O=c1[nH]c(Sc2ccc([N+](=O)[O-])cc2[N+](=O)[O-])nc2ccccc12
25) CC1=CC(C)(C)N2C(=O)C3(C(C#N)=C(N)Oc4cc(O)ccc43)c3cccc1c32 (stereo not drawn)

assay / compound	21	22	23	24	25
Cneo AK release	.	4	-2	8	1
N-glyco inh	1	.	28*	10	-1
Yeast UUG start	.	.	-4	-16	6
miR122 inh	9	3[16.7 µM]	-4	.	4
C2C12 statin	5	11	80*	.	?

26) CC1=CC(C)(C)N2C(=O)C3(C(C#N)=C(N)Oc4cc(C)oc(=O)c43)c3cc(C)cc1c32 (stereo not drawn)
27) CC1=CC(C)(C)N2C(=O)C3(C(C#N)=C(N)OC4=C3C(=O)CC(C)(C)C4)c3c(C)c(C)cc1c32 (stereo not drawn)
28) COc1cc2c3c(c1)C1(C(=O)N3C(C)(C)C=C2C)C(C#N)=C(N)Oc2cc(C)oc(=O)c21 (stereo not drawn)
29) CCOC(=O)c1ccc(N2C(=O)CC(N3CCN(C/C=C/c4ccccc4)CC3)C2=O)cc1 (stereo not drawn)
30) CC(C)(C)n1nnnc1C(c1cccs1)N(Cc1ccccc1)Cc1cccnc1 (stereo not drawn)

assay / compound	26	27	28	29	30
Cneo AK release	-5	1	-2	0	-3
N-glyco inh	-1	-2	-1	-1	-7
Yeast UUG start	-9	-8	1	10	-14
miR122 inh	0	8	2	0	2
C2C12 statin	.	92*	114*	127*	124*

Gathered by group: the compounds so far containing an NH in an aromatic ring (3)
5) CCCCCNC(=O)c1ccc2c(=O)[nH]c3c(C(=O)NCC4CCCO4)sc(=S)n3c2c1 (stereo not drawn)
6) Cc1ccc(CNC(=O)c2ccc3c(=O)[nH]c4c(C(=O)NCC5CCCO5)sc(=S)n4c3c2)cc1 (stereo not drawn)
24) O=c1[nH]c(Sc2ccc([N+](=O)[O-])cc2[N+](=O)[O-])nc2ccccc12

assay / compound	5	6	24
Cneo AK release	-1	1	8
N-glyco inh	1	4	10
Yeast UUG start	4	-6	-16
miR122 inh	-3	-4	.
C2C12 statin	118*	4	.

Single values from the entries so far:
compound 27 | N-glyco inh = -2
compound 30 | miR122 inh = 2
compound 26 | Yeast UUG start = -9
compound 29 | Yeast UUG start = 10

(further entries)
31) CC(C)(C)n1nnnc1C(c1cccnc1)N(Cc1ccccc1)Cc1cccs1 (stereo not drawn)
32) Cc1cccc2sc(NC(=O)CN(C)S(=O)(=O)c3cccs3)nc12
33) Cc1cccc2sc(NC(=O)CN(C)S(=O)(=O)c3ccc(Br)s3)nc12
34) Cc1ccc(CNC(=O)CN(C2CCCCC2)S(C)(=O)=O)cc1
35) CS(=O)(=O)N(CC(=O)NCc1ccccc1)C1CCCCC1

assay / compound	31	32	33	34	35
Cneo AK release	-1	.	0	4	1
N-glyco inh	-5	-5	-1	2	-2
Yeast UUG start	-9	.	-10	0	-17
miR122 inh	24	-9	-1	6	-9
C2C12 statin	-13	.	100*	-16	120*

36) CC(C)CNC(=O)CN(C1CCCCC1)S(=O)(=O)c1ccccc1
37) CC(=O)Nc1ccc(S(=O)(=O)Nc2ccc3c(c2)n(C)c(=O)n3C)c(C)c1
38) COc1ccc(Cl)cc1S(=O)(=O)Nc1ccc2c(c1)n(C)c(=O)n2C
39) Cc1cc(S(=O)(=O)Nc2ccc3c(c2)n(C)c(=O)n3C)ccc1F
40) COc1ccc(S(=O)(=O)Nc2ccc3c(c2)n(C)c(=O)n3C)cc1OC

assay / compound	36	37	38	39	40
Cneo AK release	0	1	-1	.	1
N-glyco inh	-2	6	58*	14	?
Yeast UUG start	-16	-9	-15	.	-17
miR122 inh	3	156*	.	.	51
C2C12 statin	102*	9	-10	.	5

41) Cc1cc(S(=O)(=O)Nc2cc(C)c(O)c(C)c2)c(C)s1
42) COc1ccc(S(=O)(=O)Nc2cc(C)ccc2OC)cc1C
43) COc1ccc(S(=O)(=O)Nc2ccc3ccccc3c2)cc1C
44) Cc1ccc(S(=O)(=O)Nc2ccc3ccccc3c2)cc1
45) CS(=O)(=O)c1ccc(NS(=O)(=O)c2ccc3ccccc3c2)cc1
46) COc1ccc(S(=O)(=O)Nc2ccc3cn[nH]c3c2)cc1C
47) Cc1cc(S(=O)(=O)NCCN(C)C)c(C)s1
48) CC(C)CC#Cc1ccc2c(c1)O[C@@H](CN(C)C(=O)Nc1ccccc1F)[C@@H](C)CN([C@H](C)CO)S2(=O)=O

assay / compound	41	42	43	44	45	46	47	48
Cneo AK release	0	-4	1	0	-1	.	-3	5
N-glyco inh	1	0	-3	-5	1	0	1	.
Yeast UUG start	-2	-3	7	7	4	.	-1	1
miR122 inh	196*	114*	109*	118*	55	.	2	1[16.7 µM]
C2C12 statin	42	10	30	0	8	.	.	17
